The record followed here is ChEMBL document CHEMBL4387758, “Discovery and Biological evaluation of pyrimido[4,5-d]pyrimidine-2,4(1H,3H)-dione derivatives as potent Bruton's tyrosine kinase inhibitors” (Bioorg Med Chem, 2019).

The species entered for the assay is Homo sapiens. Description: Selectivity ratio of IC50 for inhibition of EGFR (unknown origin) to IC50 for inhibition of BTK (unknown origin).

Molecules are shown by their SMILES.

In the case of `C=CC(=O)Nc1cccc(-n2c(=O)n(C(C)C)c(=O)c3cnc(Nc4ccc(N5CCN(C)CC5)c(OC)c4)nc32)c1`, the Ratio IC50 came out at 99.
